# Literature values, collected in US8022056B2, “Compositions and methods for the treatment of cancer” (Tautatis, Inc, priority 2006, dated 2011).
# Tested on: breast cancer
# Conditions: patients; cited from earlier work
substance,measurement,value
"Herceptin: HER2 antibody trastuzumab (Genentech, Inc.)",responder rates,about 30%
